The values that follow come from article PMC5664251, “Synthesis and Cytotoxic Evaluation of Steroidal Copper (Cu (II)) Complexes” (Bioinorganic Chemistry and Applications, 2017).

Series [1] has as its system Bel-7404 (human liver carcinoma).
The test system of series [2] is HEK-293T (normal kidney epithelial).

The term IC50 denotes the midpoint of a concentration-inhibition curve. A lower IC50 goes with inhibition by little substance. Regarding “3β-Hydroxypregnenolone-20-(2′-diazanyl) pyridine-Copper (II) [Compound 12]”, the IC50 in series [1] came out at 7 µM; in series [2], 9 µM.
On the same counts, the results for “3β-hydroxyoestrone-17-(2′-diazanyl)pyridine-Copper(II) [Compound 11]” are 14 µM and 14 µM.
